Measured values reported in BigSolDB 2.1.

CCCc1nn(C)c2c(=O)[nH]c(-c3cc(S(=O)(=O)N4CCN(C)CC4)ccc3OCC)nc12.O=C(O)CC(O)(CC(=O)O)C(=O)O
solubility (mole fraction)
Conditions | 293.2 K | 298.2 K | 303.2 K | 308.2 K | 313.2 K
in isopropanol | 3.7e-05 | 5.53e-05 | 8.44e-05 | 0.000122 | 0.000167
in water | 0.000136 | 0.000158 | 0.000194 | 0.000235 | 0.000324
